The structures appear in SMILES notation. The list shows a part of the results, in another mix than the full data. Activity calls are given as the source filed them. Rule as the data show it: active = inhibition above about 22%; inactive = the rest.

One may read the inhibition as the change of the read-out against control, counted positive when it falls.

The assay in a line: IEC-6 cell viability reduction – luminescence, cytotoxicity control for KLF5 inhibitor project, primary screen (AID 1825).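 Also: 0% = plate median of test compound wells and 100% = cytotoxic reference compound wells.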 The following applies: IEC-6 cytotoxicity, at 5 µM, hits give high values.
In the case of `CN(C)C1(CNC(=O)c2ccc(Cl)c(S(N)(=O)=O)c2)CCCCC1`, the inhibition is inactive: -1.5%.

Consider `O=P(Nc1ccccn1)(c1ccc(Br)cc1)c1ccc(Br)cc1`, for which the inhibition was inactive: 3.4%.

For the molecule `O=P(Nc1nc2ccccc2s1)(c1ccccc1)c1ccccc1`, the inhibition was inactive: 4.5%.

For `O=P1(Nc2ncccn2)COc2ccccc2OC1`, the inhibition is inactive: -3.5%.

In the case of `O=[As](O)(c1cccs1)c1cccs1`, the inhibition is inactive: -2.35%.

Take `Cc1ccc(OCC(=O)OC2CN3CCC2CC3)cc1` (stereo not given): the inhibition was inactive: -0.4%.

As for `O=P1(Nc2ccc(Br)cn2)COc2ccccc2OC1`, the inhibition is inactive: 0.1%.

As to `Nc1cccc([As](=O)(O)c2ccccc2)c1`, the inhibition is inactive: -2.8%.

Turning to `Cc1nn(-c2ccccc2)c2c1P(=O)(N1CCOCC1)N(C)C(c1ccccc1)=N2` (stereo not given), the inhibition is inactive: 2.2%.

Turning to `Cc1ccc(C(=O)OC2CN3CCC2CC3)cc1` (stereo not given), the inhibition was inactive: -1.7%.

With `CC1CCC(C(C)C)C(OP(=O)(Nc2ccccn2)c2ccccc2)C1` (stereo not given), the inhibition was inactive: 3.1%.

As to `O=C(/C=C/c1ccccc1)OC1CN2CCC1CC2` (stereo not given), the inhibition is inactive: 5.1%.

As for `CN(C)C1(CNC(=O)c2ccc(S(C)(=O)=O)cc2)CCCCC1`, the inhibition was inactive: 1.6%.

On to `O=[As](O)(c1ccccc1Br)c1ccccc1Br`, for which the inhibition is inactive: 2.25%.

Consider `CC1(CBr)Cn2c(nc3ccccc3c2=O)S1` (stereo not given), for which the inhibition was inactive: 0.7%.

Turning to `CN(C(=O)Cc1ccc(Cl)c(Cl)c1)[C@@H]1CCCC[C@H]1N1CCCC1`, the inhibition was inactive: -5.9%.

Consider `CC(C)/C=N\N=C(\N)N[N+](=O)[O-]`, for which the inhibition is inactive: -0.6%.

As to `CCOP(=O)(Nc1ccc(C)cn1)OCC`, the inhibition was inactive: -0.45%.

Consider `CCC1=CC2Cc3nc4ccc(Cl)cc4c(N)c3C(C1)C2` (stereo not given), for which the inhibition is inactive: 6.3%.

In the case of `O=P1(Nc2ccccn2)COc2ccccc2OC1`, the inhibition is inactive: -8.8%.

With `CCOP(=O)(NC(=NC(C)c1ccccc1)NC(C)c1ccccc1)OCC` (stereo not given), the inhibition is inactive: 0.2%.

As to `Clc1n[nH]nc1-c1nn[nH][15n]1`, the inhibition was inactive: 4.1%.

Turning to `CC(C)(C)C(=O)NC(Sc1ncccn1)C(Cl)(Cl)Cl` (stereo not given), the inhibition is inactive: -8.7%.

As to `CCCOP(=S)(Nc1nc(N)cc(=O)[nH]1)OCCC`, the inhibition is inactive: -5.7%.

Turning to `Nc1cccc2c([As](=O)(O)O)cccc12`, the inhibition is inactive: -10.2%.

Take `Cc1ccc(NCCc2c([N+](=O)[O-])cc([N+](=O)[O-])cc2[N+](=O)[O-])cc1`: the inhibition was inactive: -5.4%.

For `COc1cc(C2NCCC3(OCCO3)C2(C)C)cc(OC)c1OC` (stereo not given), the inhibition is inactive: -0.9%.

`CCOP(=O)(Nc1cccc2ccccc12)OCC`: the inhibition is inactive: 2%.

For `O=[As](O)(O)c1cccnc1`, the inhibition was inactive: -1.1%.

On to `COc1cc(C(=O)NCC2(N3CCOCC3)CCCCC2)cc(Cl)c1OC(C)C`, for which the inhibition is inactive: -8.7%.
